Results reported in ChEMBL document CHEMBL5726225, “Quinoline carboxamide and quinoline carbonitrile derivatives as mGluR2-negative allosteric modulators, compositions, and their use” (2017).

Amino acid sequences for entries named in this document (tags omitted). A change or cut given only in a name is not applied to a line headed by its entry.
UniProt Q14416: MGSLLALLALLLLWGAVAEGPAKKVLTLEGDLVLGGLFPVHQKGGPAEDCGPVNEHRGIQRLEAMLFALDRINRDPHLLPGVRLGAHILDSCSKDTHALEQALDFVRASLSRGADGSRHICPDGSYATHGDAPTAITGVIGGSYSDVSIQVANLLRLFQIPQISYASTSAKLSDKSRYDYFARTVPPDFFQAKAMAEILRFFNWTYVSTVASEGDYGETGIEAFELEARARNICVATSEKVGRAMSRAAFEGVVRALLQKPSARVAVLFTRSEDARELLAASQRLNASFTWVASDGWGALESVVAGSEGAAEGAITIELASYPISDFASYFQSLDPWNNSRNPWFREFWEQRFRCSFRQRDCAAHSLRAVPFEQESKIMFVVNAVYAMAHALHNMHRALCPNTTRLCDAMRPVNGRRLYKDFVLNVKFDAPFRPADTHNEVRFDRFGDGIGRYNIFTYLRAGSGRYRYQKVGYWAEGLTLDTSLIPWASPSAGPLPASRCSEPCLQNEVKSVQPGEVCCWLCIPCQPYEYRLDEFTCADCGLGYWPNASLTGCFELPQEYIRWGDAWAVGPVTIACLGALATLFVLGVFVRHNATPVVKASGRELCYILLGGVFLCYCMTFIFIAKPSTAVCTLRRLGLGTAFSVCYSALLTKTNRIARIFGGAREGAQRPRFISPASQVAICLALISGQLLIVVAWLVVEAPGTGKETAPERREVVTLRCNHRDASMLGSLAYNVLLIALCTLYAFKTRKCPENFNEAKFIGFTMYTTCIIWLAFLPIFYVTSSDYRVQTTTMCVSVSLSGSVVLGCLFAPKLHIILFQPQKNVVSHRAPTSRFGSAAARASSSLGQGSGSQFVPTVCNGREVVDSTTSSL

Biological target: Metabotropic glutamate receptor 2 (Homo sapiens, UniProt Q14416)
Experiment: Biological Assay: The utility of the compounds in accordance with the present invention as antagonists of metabotropic glutamate receptor activity, in particular mGluR2 activity, may be demonstrated by methodology known in the art. Antagonist constants are determined as follows. The compounds of the present invention were tested in a fluorescence laser imaging plate reader based assay. This assay …
Type: cell-based

| IC50 [nM] | SMILES |
| --- | --- |
| 24 | CCC(O)(c1nnnn1Cc1ccc2c(-c3ccc(F)cc3)cc(C(N)=O)nc2c1)C(F)(F)F (configuration not stated) |
| 171 | NC(=O)c1cc(-c2c(Cl)cc(F)cc2Cl)c2ccccc2n1 |
